Laboratory results from ChEMBL document CHEMBL1136078, “Fundamental structure-activity relationships associated with a new structural class of respiratory syncytial virus inhibitor” (Bioorg Med Chem Lett, 2003).
This is a selection: effects in other tests are not listed, and their absence says nothing.

System: HEp-2
Assay: Concentration that causes cytotoxicity to uninfected HEp-2 human lung carcinoma cell line
Assay type: functional

Which CC50 does the source give for `C[N+](C)(C)CCn1c(Cn2nnc3ccccc32)nc2ccccc21` here?
The CC50 was 42.5 µM.

With `CCN(CC)CCn1c(Cn2nnc3ccccc32)nc2ccccc21` as the compound, how does the CC50 read?
The CC50 was 216 µM.

With `c1ccc2c(c1)nnn2Cc1nc2ccccc2n1CCN1CCCC1` as the compound, how does the CC50 read?
The CC50 was 80 µM.

With `c1ccc2nn(Cc3nc4ccccc4n3CCN3CCCC3)nc2c1` as the compound, how does the CC50 read?
The CC50 was 127 µM.

`CCN(CC)CCn1c(Cn2nc3ccccc3n2)nc2ccccc21` was tested. Which CC50 did it give?
Its CC50 is 83.7 µM.

With `CN(C)CCn1c(Cn2nc3ccccc3n2)nc2ccccc21` as the compound, how does the CC50 read?
The CC50 was 212 µM.

With `c1ccc2nn(Cc3nc4ccccc4n3CCN3CCCCC3)nc2c1` as the compound, how does the CC50 read?
Its CC50 is 64 µM.

Which CC50 does the source give for `CC(C)N(CCn1c(Cn2nnc3ccccc32)nc2ccccc21)C(C)C` here?
Its CC50 is 42.3 µM.

Which CC50 does the source give for `c1ccc2c(c1)nnn2Cc1nc2ccccc2n1CCN1CCCCC1` here?
Its CC50 is 75 µM.

How did the CC50 turn out when `CNCCn1c(Cn2nnc3ccccc32)nc2ccccc21` was run?
Its CC50 is 74.5 µM.

For `CN1CCC[C@H]1Cn1c(Cn2nnc3ccccc32)nc2ccccc21`, which CC50 is on record?
The CC50 was 181 µM.

With `c1ccc2c(c1)nnn2Cc1nc2ccccc2n1CCN1CCCCCC1` as the compound, how does the CC50 read?
Its CC50 is 67.1 µM.

With `c1ccc2nn(Cc3nc4ccccc4n3CCN3CCCCCC3)nc2c1` as the compound, how does the CC50 read?
The CC50 was 23 µM.

`CN(C)CCn1c(Cn2nnc3ccccc32)nc2ccccc21` was tested. Which CC50 did it give?
Its CC50 is 234 µM.

For `CN1CCC[C@@H]1Cn1c(Cn2nnc3ccccc32)nc2ccccc21`, which CC50 is on record?
The CC50 was 24.4 µM.
